Laboratory results from ChEMBL document CHEMBL1151514, “Imetit and N-methyl derivatives. The transition from potent agonist to antagonist at histamine H3 receptors.1” (Bioorg Med Chem Lett, 1992).
pEC50: −log10 of the molar value. Counter-ions that a name gives are not always drawn.

Amino acid sequences for entries named in this document (tags omitted). A change or cut given only in a name is not applied to a line headed by its entry.
UniProt Q9QYN8: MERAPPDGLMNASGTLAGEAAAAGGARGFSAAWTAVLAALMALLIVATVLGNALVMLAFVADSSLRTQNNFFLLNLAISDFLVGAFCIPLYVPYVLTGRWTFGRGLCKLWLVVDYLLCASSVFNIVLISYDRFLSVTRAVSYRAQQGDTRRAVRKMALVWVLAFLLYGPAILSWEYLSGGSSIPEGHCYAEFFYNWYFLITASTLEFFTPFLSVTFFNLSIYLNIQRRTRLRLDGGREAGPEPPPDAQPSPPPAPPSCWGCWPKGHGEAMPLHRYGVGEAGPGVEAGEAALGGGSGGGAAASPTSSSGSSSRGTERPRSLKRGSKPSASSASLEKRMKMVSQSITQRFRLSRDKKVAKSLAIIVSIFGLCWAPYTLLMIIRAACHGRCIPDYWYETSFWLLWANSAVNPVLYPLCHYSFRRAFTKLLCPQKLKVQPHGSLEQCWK

Molecular target: Histamine H3 receptor (Rattus norvegicus, UniProt Q9QYN8)
Assay: The compound was evaluated for agonistic effect on release of [3H]histamine from rat brain cortical slices with L-[3H]histidine at 0.3 uM
Type: functional, tissue-based

pEC50: 9.00
Structure (SMILES): N=C(N)SCCc1cnc[nH]1 [IMETIT DIHYDROBROMIDE]
